Here are results for one molecule from publication PMC12586598, “A novel long-acting C5a-blocking cyclic peptide prevents sepsis-induced organ dysfunction via effective blockade of the inflammatory cascade” (Signal Transduction and Targeted Therapy, 2025).

For the assay, the system named is C5 cleavage / C5b-dependent terminal MAC formation. Nature of the assay: Hemolytic assay (mouse serum, hemolysin-opsonized sheep erythrocytes). In kind it is biochemical. The following applies: absorbance at 540 nm. The method, then:
Aliquots of mouse serum were incubated with serially diluted peptides Cp1 or Cp3 (in PBS) at 37 °C for 30 min prior to analysis. The anti-C5 antibody eculizumab (MCE, Shanghai) was selected as the positive control. Hemolysin-opsonized sheep erythrocytes (2% suspension in PBS) were added to the reaction system, followed by 0.5 h of incubation at 37 °C. Hemolytic activity was quantified by measuring the absorbance of the supernatant at 540 nm via a multimode microplate reader (BioTek Synerrgy H1, Agilent, USA).

B1: eculizumab (antibody, chains of the INN, looked up)
heavy: QVQLVQSGAEVKKPGASVKVSCKASGYIFSNYWIQWVRQAPGQGLEWMGEILPGSGSTEYTENFKDRVTMTRDTSTSTVYMELSSLRSEDTAVYYCARYFFGSSPNWYFDVWGQGTLVTVSSASTKGPSVFPLAPCSRSTSESTAALGCLVKDYFPEPVTVSWNSGALTSGVHTFPAVLQSSGLYSLSSVVTVPSSNFGTQTYTCNVDHKPSNTKVDKTVERKCCVECPPCPAPPVAGPSVFLFPPKPKDTLMISRTPEVTCVVVDVSQEDPEVQFNWYVDGVEVHNAKTKPREEQFNSTYRVVSVLTVLHQDWLNGKEYKCKVSNKGLPSSIEKTISKAKGQPREPQVYTLPPSQEEMTKNQVSLTCLVKGFYPSDIAVEWESNGQPENNYKTTPPVLDSDGSFFLYSRLTVDKSRWQEGNVFSCSVMHEALHNHYTQKSLSLSLG
light: DIQMTQSPSSLSASVGDRVTITCGASENIYGALNWYQQKPGKAPKLLIYGATNLADGVPSRFSGSGSGTDFTLTISSLQPEDFATYYCQNVLNTPLTFGQGTKVEIKRTVAAPSVFIFPPSDEQLKSGTASVVCLLNNFYPREAKVQWKVDNALQSGNSQESVTEQDSKDSTYSLSSTLTLSKADYEKHKVYACEVTHQGLSSPVTKSFNRGEC
notes: anti-C5 antibody, positive control in the hemolytic assay
B1: the “effect on hemolysis of sheep erythrocytes (in words)” value is “almost completely inhibited hemolysis”.
